Three molecules from ChEMBL document CHEMBL1287777 (Bioorg Med Chem Lett, 2010) can be followed below.

What is called Ki is the equilibrium dissociation constant of an inhibitor or competing ligand from its target.

One test addresses Carbonic anhydrase 1 (Homo sapiens, UniProt P00915). Description: Inhibition of full length human CA1 cytosolic isoform by stopped-flow CO2 hydration method.
In a further test the target is Carbonic anhydrase 9 (Homo sapiens, UniProt Q16790). Description: Inhibition of human recombinant CA9 catalytic domain by stopped-flow CO2 hydration method.
The next test has as its target Carbonic anhydrase 2 (Homo sapiens, UniProt P00918).

As for `CC(=O)c1cc2ccc(=O)oc2cc1O`, the Ki on Carbonic anhydrase 1 was > 100 µM.
`O=c1ccc2ccccc2o1` [COUMARIN]: on Carbonic anhydrase 9, the Ki is > 0.1 µM.
For `O=c1ccc2ccc(O)cc2o1` [UMBELLIFERONE], the values for the Ki on Carbonic anhydrase 9, at Carbonic anhydrase 2 and at Carbonic anhydrase 1 were 0.482 µM, > 100 µM and 58.4 µM, respectively.
